Laboratory results published in paper PMC6865181, “Role of L-Type Amino Acid Transporter 1 (LAT1) for the Selective Cytotoxicity of Sesamol in Human Melanoma Cells” (Molecules, 2019).

Sequences of proteins named here, by UniProt entry; tags and fusion partners are left off. A change or cut given only in a name is not applied to a line headed by its entry.
UniProt Q01650: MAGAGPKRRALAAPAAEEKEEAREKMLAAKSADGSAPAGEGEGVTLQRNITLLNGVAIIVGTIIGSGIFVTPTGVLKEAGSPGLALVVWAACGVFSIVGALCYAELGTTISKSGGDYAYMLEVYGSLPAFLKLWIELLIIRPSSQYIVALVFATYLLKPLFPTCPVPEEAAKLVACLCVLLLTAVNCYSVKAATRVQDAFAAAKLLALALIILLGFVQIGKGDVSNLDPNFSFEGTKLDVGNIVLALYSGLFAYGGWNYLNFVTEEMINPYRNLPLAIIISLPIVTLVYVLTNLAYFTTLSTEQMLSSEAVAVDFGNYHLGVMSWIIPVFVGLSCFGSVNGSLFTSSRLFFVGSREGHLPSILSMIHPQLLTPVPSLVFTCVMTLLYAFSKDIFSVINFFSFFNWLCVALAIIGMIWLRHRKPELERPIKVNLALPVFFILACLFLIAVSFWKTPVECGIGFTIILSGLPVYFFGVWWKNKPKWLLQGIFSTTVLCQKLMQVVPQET

Legend:
[1] = target: LAT1 (Homo sapiens, UniProt Q01650); assay: LAT1 function: competitive uptake of L-dopa in SK-MEL-2 cells; type: cell-based; settings: L-dopa 0.1 mM, 10 min, competitor at the concentration printed in the row
Method: (§1) SK-MEL-2 and Vero cells were seeded separately into 24-well plates at 2 × 10^5 cells/well for 24 h. The media was removed, and the cells pre-incubated with HBSS pH 7.4 for 10 min. The cells were used for the following experiments.
Sesamol was also investigated for its affinity to LAT1. […] Competitive uptake was performed for 10 min then the cells were washed twice with ice-cold PBS. The L-dopa was solubilized by 0.1 M HCl and the cell lysate (25 µL) was pipetted for protein determination. […] Intracellular and extracellular L-dopa was quantified by the HPLC assay. The L-dopa uptake was represented as the distribution volume of L-dopa in a cell to media ratio (C/M ratio) as calculated in Section 4.3.1.
(§2) The analysis was based on a BDS Hypersil C-18 column, (4.6 × 250 mm, 5 µm packing, Thermo Fisher Scientific, Waltham, MA, USA). The column temperature was set at 30 °C with a flow rate of 0.8 mL/min. The mobile phase for sesamol quantification was 70% methanol in water, vs. 20% methanol in water for L-dopa. […] The validated sesamol quantification conducted using sesamol spiked cell lysate with high selectivity and clear separation from the endogenous cell lysate as previously reported. The % bias and % precision was determined within and between days, each was maintained below 6%.

[2] = test system: LAT1; settings: Vero cells; sesamol 0.1 mM, 10 min; competitor at the concentration printed in the row
Method: as §1
Competitive inhibition of uptake of sesamol was done in both SK-MEL-2 and the Vero cells. […] The cells were washed twice with ice-cold PBS, solubilized in methanol, and centrifuged at 2400× g, at 4 °C for 20 min. The precipitated protein was re-solubilized by 0.1 M NaOH prior to protein determination. The sesamol content was quantified using HPLC assay. The cellular uptake of sesamol was calculated as per the C/M ratio.
as §2, with “Quantitative analysis of sesamol and L-dopa were performed using a Shimadzu HPLC (LC-2030C-3D) with a UV photodiode array detector (DAD) (Kyoto, Japan). The analysis” for “The analysis”

N[C@@H](Cc1ccc(O)cc1)C(=O)O [L-tyrosine]
L-Dopa Distribution Volume in presence of the compound [1]: 105.0 ± 5.2 µL/mg Protein | Sesamol Distribution Volume in presence of the compound [2]: 10.5 ± 0.7 µL/mg Protein
